From publication PMC4778748 (Bioorganic & medicinal chemistry, 2016)

Target: T1, h5-LOX (Homo sapiens, UniProt P09917)
T1 sequence (P09917 1-674): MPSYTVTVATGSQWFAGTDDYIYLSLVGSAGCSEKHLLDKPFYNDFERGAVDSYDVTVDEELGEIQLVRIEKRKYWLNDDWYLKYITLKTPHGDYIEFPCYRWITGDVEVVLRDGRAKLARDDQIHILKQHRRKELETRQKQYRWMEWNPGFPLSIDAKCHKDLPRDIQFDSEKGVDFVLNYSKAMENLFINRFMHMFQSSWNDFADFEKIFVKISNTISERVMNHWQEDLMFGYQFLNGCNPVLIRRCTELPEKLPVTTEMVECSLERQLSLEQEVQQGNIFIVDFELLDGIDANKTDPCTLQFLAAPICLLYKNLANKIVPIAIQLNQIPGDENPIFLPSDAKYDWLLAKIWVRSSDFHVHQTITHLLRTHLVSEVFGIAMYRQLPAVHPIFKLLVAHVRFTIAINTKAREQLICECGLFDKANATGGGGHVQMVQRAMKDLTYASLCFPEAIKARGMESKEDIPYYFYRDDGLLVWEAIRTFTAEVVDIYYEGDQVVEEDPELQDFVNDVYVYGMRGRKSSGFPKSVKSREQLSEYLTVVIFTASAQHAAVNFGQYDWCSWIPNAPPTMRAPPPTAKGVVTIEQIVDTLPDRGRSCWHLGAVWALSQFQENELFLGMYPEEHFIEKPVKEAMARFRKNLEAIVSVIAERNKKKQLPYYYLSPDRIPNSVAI
Test: Selectivity assay
Assay type: biochemical
Details: tested at 20 µM inhibitor concentration

selectivity for h12/15-LOX versus h5-LOX: greater than 30 fold
Structure (SMILES): Cc1ccc(O)c(-c2cc(-c3ccccc3C)[nH]n2)c1 [Compound 99089]
